Results reported in BindingDB's records for patent US10150765 (Janssen Pharmaceutica, 2018).

Chains of the proteins cited; added tags and fusions are not shown. Lines headed by an entry give the natural chain unless they say otherwise; changes in a name come on top.
UniProt Q99572: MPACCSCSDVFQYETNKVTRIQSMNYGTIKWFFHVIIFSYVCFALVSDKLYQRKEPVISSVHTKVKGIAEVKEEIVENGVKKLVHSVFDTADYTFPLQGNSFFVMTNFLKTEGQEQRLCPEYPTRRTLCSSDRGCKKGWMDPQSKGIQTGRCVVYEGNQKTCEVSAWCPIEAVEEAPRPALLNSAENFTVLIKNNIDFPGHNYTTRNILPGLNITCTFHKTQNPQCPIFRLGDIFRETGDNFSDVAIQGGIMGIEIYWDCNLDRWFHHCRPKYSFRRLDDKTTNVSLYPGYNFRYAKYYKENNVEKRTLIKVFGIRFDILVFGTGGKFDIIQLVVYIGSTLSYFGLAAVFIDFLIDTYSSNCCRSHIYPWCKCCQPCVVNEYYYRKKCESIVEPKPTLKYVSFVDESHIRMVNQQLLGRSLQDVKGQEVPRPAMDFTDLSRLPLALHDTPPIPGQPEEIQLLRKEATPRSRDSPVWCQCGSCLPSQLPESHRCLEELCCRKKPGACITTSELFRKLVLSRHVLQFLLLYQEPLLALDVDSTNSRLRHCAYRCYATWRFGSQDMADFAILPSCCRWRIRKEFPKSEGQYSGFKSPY

Molecular target: P2X purinoceptor 7 (Homo sapiens, UniProt Q99572)
Experiment: Radioligand Binding assay

Ki: 79.4 nM
SMILES: Cn1nc2c(c1-c1ccc(F)cc1)CCN(C(=O)c1cccc(C(F)(F)F)c1Cl)C2 [US10150765, Example 107]
